ChEMBL document CHEMBL1125689, “Structure-activity studies on a potent antagonist to organophosphate-induced toxicity” (1991)

Legend:
Mus musculus [1] = experiment: Ability to antagonize paraoxon (1.0 mg/kg sc)-induced motor incoordination in mice.
Mus musculus [2] = experiment: Ability to antagonize paraoxon-induced lethality in mice.(umol/kg required to protect 50% of the mice for 24 h versus a LD99 dose of paraoxon)

In the case of `CNC(=O)Oc1ccc2c(c1)[C@]1(C)CCN(C)[C@@H]1N2C`, the ED50 (Mus musculus [1]) is reported as 0.0076 µmol/kg and the PD50 (Mus musculus [2]) is reported as 0.02 µM/kg.
